Test results: patent US20240262848A1, “HETEROCYCLIC COMPOUNDS, COMPOSITIONS THEREOF, AND METHODS OF TREATMENT THEREWITH” (BeiGene, Ltd., priority 2022, published 2024)

Protein sequences, listed by entry. Tags and fused reporters are not part of them. Lines headed by an entry give the natural chain unless they say otherwise; changes in a name come on top. Residues count along the entry.
UniProt P01116, 1-188 isoform 2: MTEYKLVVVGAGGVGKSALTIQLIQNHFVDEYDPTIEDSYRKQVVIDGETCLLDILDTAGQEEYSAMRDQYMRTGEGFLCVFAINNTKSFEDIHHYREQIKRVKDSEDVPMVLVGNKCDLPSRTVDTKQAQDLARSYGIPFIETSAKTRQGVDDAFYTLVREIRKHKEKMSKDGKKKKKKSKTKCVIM
UniProt P01116, 1-188 isoform 2 G12D: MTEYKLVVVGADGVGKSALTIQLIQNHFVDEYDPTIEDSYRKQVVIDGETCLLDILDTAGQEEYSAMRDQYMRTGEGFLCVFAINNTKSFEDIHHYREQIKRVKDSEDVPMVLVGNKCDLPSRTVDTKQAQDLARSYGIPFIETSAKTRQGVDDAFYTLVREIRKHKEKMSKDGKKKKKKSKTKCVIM
UniProt P01116, 1-169 isoform 2 G12V limits assumed: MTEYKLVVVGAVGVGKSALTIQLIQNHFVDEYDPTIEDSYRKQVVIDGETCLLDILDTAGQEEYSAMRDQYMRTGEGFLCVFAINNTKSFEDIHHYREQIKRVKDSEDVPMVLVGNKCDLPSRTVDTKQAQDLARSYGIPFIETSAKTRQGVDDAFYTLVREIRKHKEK

Tests used:
[1] = molecular target: GST-tagged GDP-loaded WT KRAS (amino acids 1-169) (Homo sapiens, UniProt P01116); assay: KRAS WT probe displacement assay (run with the KRAS G12V assay, TR-FRET); settings: read-out: KRAS^WT Probe Displacement Assay IC50; Table 4; WT KRAS 3 nM, biotinylated probe 1 60 nM
Procedure: (§1) This assay was used to identify compounds which bind to GDP-loaded KRAS protein and are able to displace a biotinylated probe occupying the KRAS binding site. GST-tagged GDP-loaded WT KRAS (amino acids 1-169) and GST-tagged GDP-loaded KRAS G12V (amino acids 1-169) were expressed in E. coli and purified in house. All protein and reaction solutions were prepared in assay buffer containing 50 mM HEPES pH7.5, 50 mM NaCl, 1 mM MgCl2, 1 mM TCEP, 0.01% BSA, and 0.008% Brij-35. Purified WT KRAS (3 nM final concentration) or KRAS G12V protein (2 nM final concentration) was incubated with a 3-fold serially diluted compound in the assay plate (384 well microplate, black. Corning). Plates are incubated at 24 °C for 1 hr. Following the incubation, biotinylated probe 1 (60 nM final assay concentration) for WT KRAS and biotinylated probe 2 (2.5 nM final assay concentration) for KRAS G12V was added to the assay plate, respectively. After 1 hr incubation at 24° C. […] The TR-FRET signals (ex337 nm, em665 nm/620 nm) were read on BMG PHERAstar FSX instrument. The inhibition percentage of KRAS protein binding with biotinylated probe in presence of increasing concentrations of compounds was calculated based on the ratio of fluorescence at 665 nm to that at 620 nm. The IC5% value of each compound was calculated from fitting the data to the four-parameter logistic model by Dotmatics.

[2] = molecular target: GST-tagged GDP-loaded KRAS G12V (amino acids 1-169) (Homo sapiens, UniProt P01116, G12V); assay: KRAS G12V probe displacement assay (TR-FRET); settings: read-out: KRAS^G12V Probe Displacement Assay IC50; Table 4; KRAS G12V 2 nM, biotinylated probe 2 2.5 nM
Procedure: as §1

[3] = test system: pERK1/2(THR202/TYR204) level in SW620 cell line; assay: KRAS G12V pERK assay in SW620 cells (HTRF); settings: read-out: SW620 pERK IC50, Table 4, 2 hrs compound treatment
Procedure: SW620 cell line was used in this study. Cells were maintained in RPMI 1640 supplemented with 10% fetal bovine serum (Thermo Fisher), 50 units/mL penicillin and streptomycin (Thermo Fisher) and kept at 37° C. in a humidified atmosphere of 5% CO2 in air. Cells were reinstated from frozen stocks that were laid down within 30 passages from the original cells purchased. 40000 cells per well were seeded into a 96-well plate and incubated overnight. Cells were treated with a 10-point dilution series. The final compound concentration is from 0 to 10 μM. After 2 hrs compound treatment, cells were lysed, and the pERK1/2(THR202/TYR204) level in the cell lysates was detected by HTRF kit (Cisbio). In brief, a total of 16 μL of cell lysate from each well of a 96-well plate was transferred to a 384-well white assay plate. Lysate from each well was incubated with 2 μL of Eu3+-cryptate (donor) labeled anti-phospho-ERK1/2 and 2 μL of D)2 (acceptor) labeled anti-phospho-ERK1/2 antibodies (Cisbio) overnight in dark at room temperature. When donor and acceptor are in close proximity, excitation of the donor with laser triggers a Fluorescence Resonance Energy Transfer (FRET) towards the acceptor, which in turn fluoresces at 655 nm wavelength. FRET signals were measured using a PHERAstar FSX reader (BMG Labtech). […]

[4] = molecular target: GST-tagged GDP-loaded WT KRAS (amino acids 1-188) (Homo sapiens, UniProt P01116)
Procedure: (§2) This assay was used to identify compounds which bind to GDP-loaded KRAS protein and are able to displace a biotinylated probe occupying the KRAS binding site. GST-tagged GDP-loaded WT KRAS (amino acids 1-188) and GST-tagged GDP-loaded KRAS G12D (amin acids 1-188) were expressed in E. coli and purified in house. All protein and reaction solutions were prepared in assay buffer containing 50 mM HEPES pH7.5, 50 mM NaCl, 1 mM MgCl2, 1 mM TCEP, 0.01% BSA, and 0.008% Brij-35. Purified WT KRAS (3 nM final concentration) or KRAS G12D protein (0.5 nM final concentration) was incubated with a 3-fold serially diluted compound in the assay plate (384 well microplate, black, Corning). Plates are incubated at 24° C. for 1 hr. Following the incubation, biotinylated probe 1 (60 nM final assay concentration) for WT KRAS and biotinylated probe 2 (4 nM final assay concentration) for KRAS G12D was added to the assay plate, respectively. […] The TR-FRET signals (ex337 nm, em665 nm 620 nm) were read on BMG PHERAstar FSX instrument. The inhibition percentage of KRAS protein binding with biotinylated probe in presence of increasing concentrations of compounds was calculated based on the ratio of fluorescence at 665 nm to that at 620 nm. The IC50 value of each compound was calculated from fitting the data to the four-parameter logistic model by Dotmatics.

[5] = molecular target: GST-tagged GDP-loaded KRAS G12D (amin acids 1-188) (Homo sapiens, UniProt P01116, G12D); assay: KRAS G12D probe displacement assay (TR-FRET); settings: read-out: KRAS^G12D Probe Displacement Assay IC50; Table 5; KRAS G12D 0.5 nM, biotinylated probe 2 4 nM
Procedure: as §2

[6] = test system: pERK1/2(THR202/TYR204) level in AsPC-1 cell line; assay: KRAS G12D pERK assay in AsPC-1 cells (HTRF); settings: read-out: AsPC-1 pERK IC50, Table 5, 2 h compound treatment
Procedure: AsPC-1 cell line was used in this study. Cells were maintained in RPMI-1640 supplemented with 10% fetal bovine serum (Thermo Fisher), 50 units/ml, penicillin and streptomycin (Thermo Fisher) and kept at 37° C. in a humidified atmosphere of 5% CO2 in air. Cells were reinstated from frozen stocks that were laid down within 30 passages from the original cells purchased. 30000 cells per well were seeded into a 96-well plate and incubated overnight. Cells were treated with a 10-point dilution series. The final compound concentration is from 0 to 10 μM. After 2 h compound treatment, cells were lysed, and the pERK1/2(THR202/TYR204) level in the cell lysates was detected by HTRF kit (Cisbio). In brief, a total of 16 μL of cell lysate from each well of a 96-well plate was transferred to a 384-well white assay plate. Lysate from each well was incubated with 2 μL of Eu3+-cryptate (donor) labeled anti-phospho-ERK1/2 and 2 μL of D2 (acceptor) labeled anti-phospho-ERK1/2 antibodies (Cisbio) overnight in dark at room temperature. When the donor and acceptor are in close proximity, excitation of the donor with laser triggers a Fluorescence Resonance Energy Transfer (FRET) towards the acceptor, which in turn fluoresces at 655 nm wavelength. FRET signals were measured using a PHERAstar FSX reader (BMG Labtech). […]

Structure (SMILES): Cc1cc(N)cc(-c2nc3c4c(nc(OC[C@@]56CCCN5C[C@H](F)C6)nc4c2F)N(C)[C@H]2CCOC[C@@H]2O3)c1C(F)(F)F
- IC50 [1]: 0.58 nM
- IC50 [2]: 0.42 nM
- IC50 [3]: 7.3 nM
- IC50 [4]: 0.58 nM
- IC50 [5]: 0.32 nM
- IC50 [6]: 16 nM
